Experimental data reported in publication PMC8765781, “A platform of assays for the discovery of anti-Zika small-molecules with activity in a 3D-bioprinted outer-blood-retina model” (PLoS ONE, 2022).

Legend:
[1] = in vitro; conditions: human
[2] = in vitro; conditions: human; remark: listed apart in the source
[3] = in vitro; conditions: African green monkey

Structure (SMILES)	CC50 [1] [µM]	CC50 [2] [µM]	CC50 [3] [µM]
CC1=C[C@H]2O[C@@H]3[C@H](O)C[C@](C)([C@@]2(CO)[C@H](O)C1=O)[C@]31CO1 [NCGC00180572-02, vomitoxin]	> 30	> 30	> 50
CC(=O)O[C@@H]1[C@@H](O)[C@H]2O[C@@H]3C=C(C)[C@@H](O)C[C@]3(CO)[C@]1(C)[C@]21CO1 [NCGC00380400-01, NT-2 toxin]	–	> 30	> 50
